# CCT chaperon mod: changes cytosolic chaperonin activity; purified chaperonin ATPase assay, HTRF ADP detection, 30 min; activity change, % (concentration not given with the values), hits read low; 360,000 tested, 0.3% active; AID 651819; in the data active means activity change below about -30%; further: on the % scale 0 is the no-effect control and ±100 the full control effect
#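 Enzyme 40 or 20 nM (batch-dependent) in Tris pH 7.4/KCl/MgCl2/DTT; cpd 76 uM single point; ATP 10 uM; 30 min 37 °C; Transcreener ADP HTRF detection, 30 min RT; ratio 665/615.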
# MmCpn inh: inhibitors of Methanococcus maripaludis chaperonin TRiC (MmCpn); Potency, µM (titrated, usually from 76.9 µM), for inactives: at the highest dose activity, negative = inhibition, most hits filed as inhibitors; 330,000 tested, 0.031% active; AID 504842; purified Mm-Cpn ATPase, ADP Transcreener TR-FRET; active means well fitted inhibition curve with a large enough effect; inconclusive means small, poorly fitted or top-dose-only effect; further: potency means the concentration at half of the fitted maximal effect; on the % scale 0 is the no-effect control and ±100 the full control effect; nearly all actives have a fitted effect of over 80% in size
#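 Eu-cryptate anti-ADP/ADP-d2 competition gives a ratio inversely related to ADP. Enzyme at 25 nM was pre-exposed to compound for 10 min, then given 10 uM ATP for 30 min, 37°C throughout.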
# Rango complex inh: Rango-importin beta binding inhibition; Q14974; Potency, µM (doses to about 92.2 µM), without a hit: at the top dose inhibition of complex formation; AID 540263; Rango CFP/YFP FRET sensor + importin beta, 45 min; 340,000 tested, 0.031% active;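 further: potency means the concentration at half of the fitted maximal effect; 0% = DMSO wells and 100% = buffer wells lacking importin beta; nearly all actives have a fitted effect of over 15% in size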
#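 Inhibition scored from the CFP 486 nm/YFP 530 nm FRET ratio 45 min after adding 0.125 microM importin beta to 50 nM Rango biosensor preincubated 5 min with compound (room temperature, PBS with DTT, Tween-20, BSA). No-importin wells as positive control.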
# Rango dissoc inh: inhibitors of RanGTP-induced Rango-importin beta complex dissociation | O95149+P62826 | Biochemical FRET Rango-importin beta, RanGTP-induced dissociation | Potency, µM (titrated, usually from 46.1 µM), for inactives: top-dose activity change, negative = inhibition | 340,000 tested, 0.071% active; further: potency means the concentration at half of the fitted maximal effect; % of control where 0% means no effect; nearly all actives have a fitted effect of over 45% in size
#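 Quantitative HTS using a FRET biosensor: 0.1 uM Rango, 0.25 uM importin beta, 0.6 uM Ran, 2 mM GTP, 0.2 uM RCC1 final, PBS with DTT, Tween-20 and BSA. Post-read taken 45 min after Ran addition.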
# * marks the source's active call; other numbers are inactive results; ? = inconclusive; · = no result; [ ] = remark or other dose. The list is not random: actives were taken first. Their share in the collection is about 0.39%. Unless noted, the call rests on the fitted dose curve.
1: CS(=O)(=O)N1CCN(c2ccccc2NC(=O)Cc2ccccc2)CC1
2: CS(=O)(=O)N1CCN(c2ccccc2NC(=O)Cc2ccc(Cl)cc2)CC1
3: CC(=O)c1cc2c(C)c(C(=O)c3ccccc3)oc2cc1O
4: Cc1oc2ccc(O)cc2c1C(=O)c1ccccc1
5: CN(CC(=O)Nc1ccc(Cl)c(C(F)(F)F)c1)C(=O)c1ccccc1SCC(=O)N1CCCC1
6: Nc1ccn([C@@H]2O[C@H](CNCc3ccc(Oc4cc(-n5cccn5)ncn4)cc3)[C@@H](O)[C@H]2O)c(=O)n1
7: COC(=O)CCC(=O)OC1(C)C(=O)C2=CN(C3CCCC3)C(c3ccc(OC)cc3)=CC2=C(Br)C1=O (stereo unspecified)
8: O=c1c2ccccc2sc2ccccc12

Compound | 1 | 2 | 3 | 4 | 5 | 6 | 7 | 8
CCT chaperon mod | 0 | -32* | -8 | 0 | -1 | -1 | 1 | -35*
MmCpn inh | -1% | 0% | -1% | -1% | · | · | -3% | ·
Rango complex inh | ? | 1% | 6.5µM* | 0% | 0% | · | ? | -7%
Rango dissoc inh | -3% | -1% | ? | -10% | 16% | · | 9.2µM* | -17%

# Next part (2 carried over from the part before).
7: COC(=O)CCC(=O)OC1(C)C(=O)C2=CN(C3CCCC3)C(c3ccc(OC)cc3)=CC2=C(Br)C1=O (stereo unspecified)
8: O=c1c2ccccc2sc2ccccc12
9: O=c1c2ccccc2sc2ccc(Cl)cc12
10: CCCC[C@]12Cc3cc(C#N)ccc3C(O1)c1c(c3cc(F)ccc3oc1=O)O2
11: COc1ccc2c(c1)cc(C(=O)N[C@H](C(=O)N1CCC(C(=O)O)CC1)C(C)C)n2C
12: Cc1ccc(C)c(NC(=O)NNC(=O)c2cc3occc3[nH]2)c1
13: COc1ccc(OC)c(NC(=O)NNC(=O)c2cc3occc3[nH]2)c1
14: COc1ccc(-c2sc3ccccc3c2-c2ccc(OC)cc2F)cc1
15: COc1cc(/C=C\C(=O)OCn2nnc3ccccc3c2=O)cc(OC)c1OC
16: O=C(O)C(Cc1cn[nH]n1)=NO

Compound | 7 | 8 | 9 | 10 | 11 | 12 | 13 | 14 | 15 | 16
CCT chaperon mod | 1 | -35* | -26 | · | -2 | -3 | -68* | 1 | -36* | -51*
MmCpn inh | -3% | · | ? | -3%[15.4 µM] | -6% | -1% | 2% | · | -1% | -3%
Rango complex inh | ? | -7% | -4% | · | -2% | 0% | 1% | · | 0% | -1%
Rango dissoc inh | 9.2µM* | -17% | -30% | · | -11% | 4% | 1% | · | -11% | 2%

# Copied from the list:
# Under Rango complex inh, cpd 16 reads -1%
# Under Rango dissoc inh, cpd 15 reads -11%
# Under CCT chaperon mod, cpd 9 reads -26

# New compounds follow.
17: Clc1ccc(C2Nc3cccc4cccc(c34)N2)cc1
18: Cc1nnc(N2C(=O)C(O)=C(C(=O)c3ccco3)C2c2ccc(C(C)(C)C)cc2)s1 (stereo unspecified)
19: Cc1nnc(N2C(=O)C(O)=C(C(=O)c3ccco3)C2c2ccc(F)cc2)s1 (stereo unspecified)
20: O=C(c1ccccc1)c1ccc(O)cc1O
21: CC(C)c1cccc(-c2csc(C(O)c3cccc(Cl)c3)n2)c1 (stereo unspecified)
22: Cc1ccc(N2C3=C(C(=O)CC(C)(C)C3)C(c3cn(C)nc3C)C3=C2CC(C)(C)CC3=O)cc1
23: Cc1nn(C)cc1C1C2=C(CC(C)(C)CC2=O)N(c2ccccc2)C2=C1C(=O)CC(C)(C)C2
24: Cc1ccc2nc(-c3ccc(NS(C)(=O)=O)cc3)cc(-c3ccccc3)c2c1

Compound | 17 | 18 | 19 | 20 | 21 | 22 | 23 | 24
CCT chaperon mod | -56* | 0 | -1 | 0 | -1 | 0 | -1 | -4
MmCpn inh | 1% | -9% | -12% | -1% | · | · | 1% | -2%
Rango complex inh | 0% | ? | -5% | 58µM* | · | ? | ? | ?
Rango dissoc inh | 3% | 26µM* | ? | 10% | · | ? | 8.2µM* | 8.9µM*

25: Cc1ccccc1OCC(=O)N/N=C/c1ccc([N+](=O)[O-])o1
26: Cc1cc(C)cc(OCC(=O)N/N=C/c2ccc([N+](=O)[O-])o2)c1
27: OC(COc1ccc2ccccc2c1Cl)CN1CCOCC1 (stereo unspecified)
28: Cc1cccc(C)c1-n1nnnc1C(c1ccnc2ccccc12)N1CCN(c2ccccc2F)CC1 (stereo unspecified)
29: COc1ccc(S(=O)(=O)N(C)CC(=O)Nc2ccccc2SC)cc1
30: COc1ccc(CC(=O)N(C)CC(=O)Nc2ccccc2SC)cc1
31: CCCn1nc(C(=O)NNC(=O)CCCOc2ccc(OC)cc2)c2ccccc2c1=O
32: CCOc1ccc(OCCC(=O)NNC(=O)c2nn(C)c(=O)c3ccccc23)cc1
33: Cc1ccc(F)cc1NCC(=O)Nc1ccc(Cl)cc1F
34: CCOC(=O)Cn1c(-c2cccnc2Cl)nc2cc(C)c(C)cc21
35: COc1cccc(/C=C(\C#N)c2nc3ccc(C)cc3[nH]2)c1OCC(=O)O

Compound | 25 | 26 | 27 | 28 | 29 | 30 | 31 | 32 | 33 | 34 | 35
CCT chaperon mod | 3 | -2 | -32* | 1 | -1 | -46* | -76* | -4 | -47* | -34* | -3
MmCpn inh | 1% | -2% | ? | · | 2% | 0% | 0% | -1% | 1% | 0% | 1%
Rango complex inh | ? | 5% | 0% | · | 4% | 0% | 2% | 0% | -1% | -1% | ?
Rango dissoc inh | 16µM* | 3% | -4% | · | -22% | -7% | 4% | 6% | 0% | -5% | 16µM*
